Reference: PubChem BioAssay AID697 (Columbia University Molecular Screening Center, 2007)
This is a selection; strong and weak results do not stand in their true shares. Calls of active or inactive are those of the source.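 How the source made its calls: active means activation at 2 µM above a set limit, the mean plus 5 SD (cut at about 37% in these data); inactive means the rest.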

Amino acid sequences for entries named in this document (tags omitted).
UniProt Q9Y2R2, whole entry, looked up: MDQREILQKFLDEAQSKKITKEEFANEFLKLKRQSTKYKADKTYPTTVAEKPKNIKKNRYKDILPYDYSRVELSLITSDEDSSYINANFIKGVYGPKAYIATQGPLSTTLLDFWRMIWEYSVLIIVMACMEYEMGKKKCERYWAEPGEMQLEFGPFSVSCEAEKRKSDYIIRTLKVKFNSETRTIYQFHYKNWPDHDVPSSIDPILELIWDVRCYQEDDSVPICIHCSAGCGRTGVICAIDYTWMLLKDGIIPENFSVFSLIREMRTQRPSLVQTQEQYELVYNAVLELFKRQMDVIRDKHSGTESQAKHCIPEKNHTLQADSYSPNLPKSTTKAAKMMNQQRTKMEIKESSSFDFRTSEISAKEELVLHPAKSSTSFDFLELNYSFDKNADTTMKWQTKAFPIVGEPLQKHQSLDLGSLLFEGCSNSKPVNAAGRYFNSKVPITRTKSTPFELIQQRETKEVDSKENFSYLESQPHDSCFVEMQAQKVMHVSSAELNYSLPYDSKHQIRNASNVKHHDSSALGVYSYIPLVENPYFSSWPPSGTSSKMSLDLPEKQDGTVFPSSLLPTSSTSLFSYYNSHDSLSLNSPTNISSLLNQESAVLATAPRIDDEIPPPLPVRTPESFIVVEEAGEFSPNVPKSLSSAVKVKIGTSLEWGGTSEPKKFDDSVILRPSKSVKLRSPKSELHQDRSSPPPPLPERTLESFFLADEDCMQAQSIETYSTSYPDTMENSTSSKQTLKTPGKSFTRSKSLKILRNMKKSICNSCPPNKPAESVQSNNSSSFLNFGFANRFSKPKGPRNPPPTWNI

Target: Tyrosine-protein phosphatase non-receptor type 22 (Homo sapiens) (UniProt Q9Y2R2)
Assay: LYP phosphatase activators, primary screen, biochemical, DiFMUP fluorescence, 2 µM (AID 697)
Conditions: recombinant LYP, at 2 µM, stronger effect = higher value, 0 = plate median, 100 = signal doubled

SMILES | activation
CCOP1(=S)c2c(C)nn(CCC#N)c2N=C(c2ccccc2F)N1C (stereo not drawn) | inactive: -5.9%
CCOP1(=S)c2c(C)nn(CCC#N)c2N=C(c2ccc(F)cc2)N1C (stereo not drawn) | inactive: -7%
O=[N+]([O-])c1ccc2c(c1)nnn2O | inactive: 2.2%
Cc1cccc(OCC(=O)OC2CN3CCC2CC3)c1 (stereo not drawn) | inactive: 3.9%
O=P1(Nc2ccccn2)COc2ccccc2OC1 | inactive: 1.3%
Clc1n[nH]nc1-c1nn[nH][15n]1 | inactive: -2%
CC1(CBr)Cn2c(nc3ccccc3c2=O)S1 (stereo not drawn) | inactive: 3.6%
Cc1nn(-c2ccccc2)c2c1P(=O)(N1CCOCC1)N(C)C(c1ccccc1)=N2 (stereo not drawn) | inactive: 5.2%
O=P1(Nc2ncccn2)COc2ccccc2OC1 | inactive: -8.6%
Cc1ccc(OCC(=O)OC2CN3CCC2CC3)cc1 (stereo not drawn) | inactive: 7.3%
O=P1(Nc2ccc(Br)cn2)COc2ccccc2OC1 | inactive: 5.6%
COP1(=S)c2c(C)nn(CCC#N)c2N=C(c2ccc(F)cc2)N1C (stereo not drawn) | inactive: 1.4%
O=C(COc1ccccc1)OC1CN2CCC1CC2 (stereo not drawn) | inactive: -3.1%
CCC(C)N(CC(C)C)C(=S)SC(NC(C)=O)C(Cl)(Cl)Cl (stereo not drawn) | inactive: 1%
O=C(OC1CN2CCC1CC2)C12CC3CC(CC(C3)C1)C2 (stereo not drawn) | inactive: -10.7%
ClCCSc1nnc(-c2cccnc2)o1 | inactive: 2%
CCN(CC)C(=S)SC(NC=O)C(Cl)(Cl)Cl (stereo not drawn) | inactive: 4.7%

SMILES | activation
CCOP(=O)(Nc1ccccc1)OCC | inactive: -3.9%
CN1CCCC(OC(=O)C(c2ccccc2)c2ccccc2)C1 (stereo not drawn) | inactive: 8.6%
Oc1ccccc1CNc1ccccn1 | inactive: -12.3%
Cc1c2non([O-])c-2c(C)[n+](=O)[n+]1[O-] | inactive: 18%
CC(C)CC(=O)NC(Sc1ccc(Cl)cc1)C(Cl)(Cl)Cl (stereo not drawn) | inactive: 6.7%
CCc1nc2c(n1)c1c(non1O)c1c2no[n+]1[O-] | inactive: 8%
O=[N+]([O-])c1cccc2n[nH]nc12 | inactive: 4.1%
CC(=O)N1C2C3N(C(C)=O)C1C1N(C(C)=O)C(C(N1C(C)=O)N3C(C)=O)N2C(C)=O | inactive: -0.2%
CC1CCN(C(=O)Oc2c(Cl)cc(Cl)c3cccnc23)CC1 | inactive: -3.5%
O=C(OC1CN2CCC1CC2)c1cccc(Cl)c1 (stereo not drawn) | inactive: 9.1%
O=P(Nc1nccs1)(c1ccccc1)c1ccccc1 | inactive: 3.3%
c1nnnn1CCn1cnnn1 | inactive: 8.6%
O=P1(Nc2nc3ccc(Cl)cc3s2)COc2ccccc2O1 (stereo not drawn) | inactive: 9.3%
CCOC(=O)NC(Sc1ccccc1)C(Cl)(Cl)Cl (stereo not drawn) | inactive: -5.8%
CCC(=O)N1C2C3N(C(=O)CC)C1C1N(C(=O)CC)C(C(N1C(=O)CC)N3C(=O)CC)N2C(=O)CC | inactive: 14.9%
COC(=O)c1cc2c(s1)N=C(c1ccccc1)N(C)P2(=O)N1CCOCC1 (stereo not drawn) | inactive: -2.1%
